A short description of the data set: Pharmacokinetics in cynomolgus monkeys, intravenous. The format is in vivo. The settings on record: i.v., 4 nmol/kg semaglutide, 5 nmol/kg Molecule 019.

The term Vz denotes a proportionality between amount in the body and measured concentration, not a real space. In turn, Semaglutide [reference compound] showed a Cl of 1.56 mL/h/kg and a Vz of 0.09 L/kg.

Source of the values: patent US12383623B2, “Liquid pharmaceutical compositions of polypeptide conjugates and methods of uses thereof” (BEIJING QL BIOPHARMACEUTICAL CO., LTD., priority 2022, dated 2025).
